What was measured:
Type in all cases: cell-based
MCF7 [1] = test: Inhibition of KDM5 human MCF7 cells assessed as up-regulation of MT1H mRNA expression at 1 uM after 48 hrs by RT-qPCR assay
MCF7 [2] = test: Inhibition of KDM5 in human MCF7 cells assessed as up-regulation of STING protein expression at 1 uM after 48 hrs by Western blot analysis relative to control
[3] = biological target: T1, Lysine-specific demethylase 5A (Homo sapiens, UniProt P29375); test: Inhibition of KDM5A in human MCF7 cells assessed as increase in H3K4me3 levels at 1 uM after 30 hrs by Western blot analysis relative to control
[4] = biological target: T1, Lysine-specific demethylase 5A; test: Inhibition of KDM5A in human MCF7 cells assessed as increase in H3K4me3 levels at 1 uM after 48 hrs by Western blot analysis relative to control
MCF7 [5] = test: Inhibition of KDM5 human MCF7 cells assessed as up-regulation of MT1F mRNA expression at 1 uM after 48 hrs by RT-qPCR assay
MCF7 [6] = test: Inhibition of KDM5 human MCF7 cells assessed as up-regulation of STING mRNA expression at 1 uM after 48 hrs by RT-qPCR assay relative to control

Protein sequences, listed by entry. Tags and fused reporters are not part of them. Lines headed by an entry give the natural chain unless they say otherwise; changes in a name come on top.
UniProt P29375: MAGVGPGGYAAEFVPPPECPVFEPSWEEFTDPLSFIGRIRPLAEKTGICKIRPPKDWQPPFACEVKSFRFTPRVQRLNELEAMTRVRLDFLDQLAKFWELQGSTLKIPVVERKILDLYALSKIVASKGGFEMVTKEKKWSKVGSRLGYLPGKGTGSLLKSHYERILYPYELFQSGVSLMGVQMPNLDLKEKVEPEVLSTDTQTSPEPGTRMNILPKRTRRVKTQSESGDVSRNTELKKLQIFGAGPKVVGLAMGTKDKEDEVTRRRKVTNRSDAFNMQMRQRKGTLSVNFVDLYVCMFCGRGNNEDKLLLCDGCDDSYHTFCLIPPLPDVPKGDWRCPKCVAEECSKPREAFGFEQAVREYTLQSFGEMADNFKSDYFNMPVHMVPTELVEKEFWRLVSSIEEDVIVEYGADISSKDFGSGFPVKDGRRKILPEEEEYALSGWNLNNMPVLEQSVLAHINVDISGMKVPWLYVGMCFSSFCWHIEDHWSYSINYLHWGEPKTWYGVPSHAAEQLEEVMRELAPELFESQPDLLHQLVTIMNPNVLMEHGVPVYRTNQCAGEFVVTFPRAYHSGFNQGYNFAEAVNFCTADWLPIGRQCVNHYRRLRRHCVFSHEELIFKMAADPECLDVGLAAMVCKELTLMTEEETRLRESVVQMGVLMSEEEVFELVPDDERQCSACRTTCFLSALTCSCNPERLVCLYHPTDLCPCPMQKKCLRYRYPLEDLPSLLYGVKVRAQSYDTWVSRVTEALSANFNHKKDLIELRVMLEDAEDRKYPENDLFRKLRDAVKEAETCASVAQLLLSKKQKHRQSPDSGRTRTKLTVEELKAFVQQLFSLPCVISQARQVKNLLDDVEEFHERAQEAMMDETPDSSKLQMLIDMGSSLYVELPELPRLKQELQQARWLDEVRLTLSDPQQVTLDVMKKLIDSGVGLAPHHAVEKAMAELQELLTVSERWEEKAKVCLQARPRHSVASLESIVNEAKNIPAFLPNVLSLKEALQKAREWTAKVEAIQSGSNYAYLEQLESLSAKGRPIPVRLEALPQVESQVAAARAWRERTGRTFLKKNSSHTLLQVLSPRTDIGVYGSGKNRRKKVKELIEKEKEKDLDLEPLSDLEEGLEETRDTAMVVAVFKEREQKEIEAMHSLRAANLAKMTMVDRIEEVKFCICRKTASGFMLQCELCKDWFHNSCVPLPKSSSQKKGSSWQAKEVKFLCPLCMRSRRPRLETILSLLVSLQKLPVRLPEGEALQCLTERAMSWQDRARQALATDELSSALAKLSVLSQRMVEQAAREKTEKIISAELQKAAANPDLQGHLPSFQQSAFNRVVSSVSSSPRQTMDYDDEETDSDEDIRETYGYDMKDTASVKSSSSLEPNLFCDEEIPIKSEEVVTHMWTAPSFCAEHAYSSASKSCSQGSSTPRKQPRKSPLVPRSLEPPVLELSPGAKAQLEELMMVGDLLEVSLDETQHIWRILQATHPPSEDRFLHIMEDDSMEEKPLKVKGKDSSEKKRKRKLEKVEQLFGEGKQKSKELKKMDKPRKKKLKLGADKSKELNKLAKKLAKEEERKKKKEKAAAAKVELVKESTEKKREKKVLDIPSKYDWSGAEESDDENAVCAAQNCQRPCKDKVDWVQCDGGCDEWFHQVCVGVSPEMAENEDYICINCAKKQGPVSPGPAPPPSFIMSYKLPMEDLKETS

fold change (FC) [3]: > 5
fold change (FC) [4]: > 5
Structure (SMILES): CCOC(=O)c1ccnc(CNCC(=O)N(CC)CCN(C)C)c1
fold change (FC) (MCF7 [1]): < 6
fold change (FC) (MCF7 [2]): > 10
fold change (FC) (MCF7 [5]): < 6
fold change (FC) (MCF7 [6]): < 6

Source: ChEMBL document CHEMBL4266040, “Structure-Based Engineering of Irreversible Inhibitors against Histone Lysine Demethylase KDM5A” (J Med Chem, 2018)
